Data published in publication PMC13429874, “ABHD2 activity is not required for the non-genomic action of progesterone on human sperm” (Human Reproduction (Oxford, England), 2026).

Protein sequences, listed by entry. Tags and fused reporters are not part of them.
UniProt P08910, whole entry: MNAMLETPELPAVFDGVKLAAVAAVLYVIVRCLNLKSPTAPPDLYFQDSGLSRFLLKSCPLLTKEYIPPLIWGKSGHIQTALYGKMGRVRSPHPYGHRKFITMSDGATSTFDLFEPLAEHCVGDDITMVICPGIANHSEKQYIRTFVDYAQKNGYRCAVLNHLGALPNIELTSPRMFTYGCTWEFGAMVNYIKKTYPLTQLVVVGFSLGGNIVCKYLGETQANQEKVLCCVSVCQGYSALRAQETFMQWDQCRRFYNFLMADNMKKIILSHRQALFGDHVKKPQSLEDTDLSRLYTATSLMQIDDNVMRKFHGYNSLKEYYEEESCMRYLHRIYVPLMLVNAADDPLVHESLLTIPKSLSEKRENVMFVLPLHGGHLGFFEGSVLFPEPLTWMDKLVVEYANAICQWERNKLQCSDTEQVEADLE

Molecular target: full-length human ABHD2 (ABHD2^FL) (Homo sapiens, UniProt P08910)
Experiment: ABHD2^FL enzymatic activity assay with 7-HCA substrate
Type: biochemical
Conditions: read-out: IC50 measured in ABHD2^FL in the 7-HCA Assay; Supplementary Table S2

pIC50: < 4.70
SMILES: FC(F)(F)Oc1ccc(Oc2ccnc(N3CCC(NC(=S)Nc4cccnc4)CC3)c2Cl)c(Cl)c1

pIC50: −log10 of the molar value.
